Cyclic peptide permeability, from CycPeptMPDB

Values of Furukawa et al. 2016, doi:10.1021/acs.jmedchem.6b01246, as listed in CycPeptMPDB.

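Lipid, pH, incubation time, direction and concentration are not recorded in the data file. The list need not hold all peptides of the study. Entries at the database's floor value (log10 P of -10) are not listed.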

PAMPA measures passive passage through an artificial lipid membrane. P is given in units of 10^-6 cm/s (from log10 values with two decimals); larger means faster passage.

The entry for CCCC[C@@H]1NC(=O)[C@@H](CC(C)C)NC(=O)CN(CC2CCCCC2)C(=O)[C@H](Cc2ccccc2)NC(=O)CN(CC)C(=O)[C@H]2CCCN2C1=O lists PAMPA 17 × 10^-6 cm/s.
The entry for CCCC[C@@H]1NC(=O)[C@@H](CC(C)C)NC(=O)CN(CC2CCOCC2)C(=O)[C@H](Cc2ccccc2)NC(=O)CN(CC)C(=O)[C@H]2CCCN2C1=O lists PAMPA 1.3 × 10^-6 cm/s.
The entry for CCCCCN1CC(=O)N[C@H](CC(C)C)C(=O)N[C@@H](CCCC)C(=O)N2CCC[C@@H]2C(=O)N(CC)CC(=O)N[C@H](C)C1=O lists PAMPA 0.44 × 10^-6 cm/s.
The entry for CCCCCN1CC(=O)N[C@@H](CC(C)C)C(=O)N[C@@H](CCCC)C(=O)N2CCC[C@H]2C(=O)N(Cc2ccc3c(c2)OCO3)CC(=O)N[C@H](C)C1=O lists PAMPA 2.1 × 10^-6 cm/s.
The entry for CCCC[C@@H]1NC(=O)[C@H](CC(C)C)NC(=O)CN(CC2CCOCC2)C(=O)[C@@H](C)NC(=O)CN(Cc2ccc3c(c2)OCO3)C(=O)[C@@H]2CCCN2C1=O lists PAMPA 0.093 × 10^-6 cm/s.
The entry for CCCCCN1CC(=O)N(C)[C@@H](CC(C)C)C(=O)N[C@@H](CCCC)C(=O)N2CCC[C@H]2C(=O)N(Cc2ccc3c(c2)OCO3)CC(=O)N[C@@H](C)C1=O lists PAMPA 13 × 10^-6 cm/s.
The entry for CCCC[C@@H]1NC(=O)[C@@H](CC(C)C)NC(=O)CN(CC2CCOCC2)C(=O)[C@@H](C)NC(=O)CN(CCCOC(C)C)C(=O)[C@H]2CCCN2C1=O lists PAMPA 0.25 × 10^-6 cm/s.
The entry for CCCCCN1CC(=O)N(C)[C@H](CC(C)C)C(=O)N[C@@H](CCCC)C(=O)N2CCC[C@@H]2C(=O)N(CCCOC(C)C)CC(=O)N[C@@H](C)C1=O lists PAMPA 14 × 10^-6 cm/s.
The entry for CCCC[C@@H]1NC(=O)[C@H](CC(C)C)NC(=O)CN(CC2CCCCC2)C(=O)[C@@H](C)NC(=O)CN(CCCOC(C)C)C(=O)[C@@H]2CCCN2C1=O lists PAMPA 1.1 × 10^-6 cm/s.
The entry for CCCC[C@@H]1NC(=O)[C@H](CC(C)C)N(C)C(=O)CN(CC2CCOCC2)C(=O)[C@H](C)NC(=O)CN(CC)C(=O)[C@@H]2CCCN2C1=O lists PAMPA 0.068 × 10^-6 cm/s.
The entry for CCCCCN1CC(=O)N(C)[C@@H](CC(C)C)C(=O)N[C@@H](CCCC)C(=O)N2CCC[C@H]2C(=O)N(CCCOC(C)C)CC(=O)N[C@@H](C)C1=O lists PAMPA 10 × 10^-6 cm/s.
The entry for CCCCCN1CC(=O)N(C)[C@H](CC(C)C)C(=O)N[C@@H](CCCC)C(=O)N2CCC[C@@H]2C(=O)N(CC)CC(=O)N[C@H](C)C1=O lists PAMPA 1 × 10^-6 cm/s.
The entry for CCCC[C@@H]1NC(=O)[C@@H](CC(C)C)NC(=O)CN(CC2CCCCC2)C(=O)[C@@H](C)NC(=O)CN(CC)C(=O)[C@@H]2CCCN2C1=O lists PAMPA 0.46 × 10^-6 cm/s.
The entry for CCCCCN1CC(=O)N[C@@H](CC(C)C)C(=O)N[C@@H](CCCC)C(=O)N2CCC[C@@H]2C(=O)N(CCCOC(C)C)CC(=O)N[C@H](Cc2ccccc2)C1=O lists PAMPA 6.5 × 10^-6 cm/s.
The entry for CCCCCN1CC(=O)N(C)[C@H](CC(C)C)C(=O)N[C@@H](CCCC)C(=O)N2CCC[C@H]2C(=O)N(Cc2ccc3c(c2)OCO3)CC(=O)N[C@@H](C)C1=O lists PAMPA 14 × 10^-6 cm/s.
The entry for CCCC[C@@H]1NC(=O)[C@@H](CC(C)C)N(C)C(=O)CN(CC2CCOCC2)C(=O)[C@@H](C)NC(=O)CN(CC)C(=O)[C@H]2CCCN2C1=O lists PAMPA 0.065 × 10^-6 cm/s.
The entry for CCCC[C@@H]1NC(=O)[C@@H](CC(C)C)N(C)C(=O)CN(CC2CCOCC2)C(=O)[C@H](Cc2ccccc2)NC(=O)CN(CCCOC(C)C)C(=O)[C@@H]2CCCN2C1=O lists PAMPA 8.3 × 10^-6 cm/s.
The entry for CCCCCN1CC(=O)N[C@@H](CC(C)C)C(=O)N[C@@H](CCCC)C(=O)N2CCC[C@H]2C(=O)N(Cc2ccc3c(c2)OCO3)CC(=O)N[C@@H](Cc2ccccc2)C1=O lists PAMPA 8.1 × 10^-6 cm/s.
The entry for CCCCCN1CC(=O)N(C)[C@H](CC(C)C)C(=O)N[C@@H](CCCC)C(=O)N2CCC[C@H]2C(=O)N(CCCOC(C)C)CC(=O)N[C@@H](Cc2ccccc2)C1=O lists PAMPA 8.3 × 10^-6 cm/s.
The entry for CCCC[C@@H]1NC(=O)[C@H](CC(C)C)N(C)C(=O)CN(CC2CCCCC2)C(=O)[C@H](C)NC(=O)CN(Cc2ccc3c(c2)OCO3)C(=O)[C@H]2CCCN2C1=O lists PAMPA 7.6 × 10^-6 cm/s.
The entry for CCCC[C@@H]1NC(=O)[C@H](CC(C)C)N(C)C(=O)CN(CC2CCOCC2)C(=O)[C@H](Cc2ccccc2)NC(=O)CN(Cc2ccc3c(c2)OCO3)C(=O)[C@H]2CCCN2C1=O lists PAMPA 3.5 × 10^-6 cm/s.
The entry for CCCC[C@@H]1NC(=O)[C@H](CC(C)C)N(C)C(=O)CN(CC2CCCCC2)C(=O)[C@@H](C)NC(=O)CN(CCCOC(C)C)C(=O)[C@@H]2CCCN2C1=O lists PAMPA 11 × 10^-6 cm/s.
The entry for CCCC[C@@H]1NC(=O)[C@H](CC(C)C)N(C)C(=O)CN(CC2CCOCC2)C(=O)[C@H](C)NC(=O)CN(Cc2ccc3c(c2)OCO3)C(=O)[C@H]2CCCN2C1=O lists PAMPA 0.79 × 10^-6 cm/s.